The list shows a part of the results, in another mix than the full data. Calls of active or inactive are those of the source. No stated cut-off is given here; in the data, active means inhibition above about 50%; inactive means the rest.
The molecules below were run against Histone-lysine N-methyltransferase NSD2 (Homo sapiens) (UniProt O96028) (assay: NSD2 histone methyltransferase inhibitors, primary screen, biochemical, AlphaScreen, single concentration, set 2 (AID 743445)). Settings: NSD2 peptide methylation, 120 min, at 12.5 µM, hits give high values.

Protein sequences, listed by entry. Tags and fused reporters are not part of them.
UniProt O96028, whole entry: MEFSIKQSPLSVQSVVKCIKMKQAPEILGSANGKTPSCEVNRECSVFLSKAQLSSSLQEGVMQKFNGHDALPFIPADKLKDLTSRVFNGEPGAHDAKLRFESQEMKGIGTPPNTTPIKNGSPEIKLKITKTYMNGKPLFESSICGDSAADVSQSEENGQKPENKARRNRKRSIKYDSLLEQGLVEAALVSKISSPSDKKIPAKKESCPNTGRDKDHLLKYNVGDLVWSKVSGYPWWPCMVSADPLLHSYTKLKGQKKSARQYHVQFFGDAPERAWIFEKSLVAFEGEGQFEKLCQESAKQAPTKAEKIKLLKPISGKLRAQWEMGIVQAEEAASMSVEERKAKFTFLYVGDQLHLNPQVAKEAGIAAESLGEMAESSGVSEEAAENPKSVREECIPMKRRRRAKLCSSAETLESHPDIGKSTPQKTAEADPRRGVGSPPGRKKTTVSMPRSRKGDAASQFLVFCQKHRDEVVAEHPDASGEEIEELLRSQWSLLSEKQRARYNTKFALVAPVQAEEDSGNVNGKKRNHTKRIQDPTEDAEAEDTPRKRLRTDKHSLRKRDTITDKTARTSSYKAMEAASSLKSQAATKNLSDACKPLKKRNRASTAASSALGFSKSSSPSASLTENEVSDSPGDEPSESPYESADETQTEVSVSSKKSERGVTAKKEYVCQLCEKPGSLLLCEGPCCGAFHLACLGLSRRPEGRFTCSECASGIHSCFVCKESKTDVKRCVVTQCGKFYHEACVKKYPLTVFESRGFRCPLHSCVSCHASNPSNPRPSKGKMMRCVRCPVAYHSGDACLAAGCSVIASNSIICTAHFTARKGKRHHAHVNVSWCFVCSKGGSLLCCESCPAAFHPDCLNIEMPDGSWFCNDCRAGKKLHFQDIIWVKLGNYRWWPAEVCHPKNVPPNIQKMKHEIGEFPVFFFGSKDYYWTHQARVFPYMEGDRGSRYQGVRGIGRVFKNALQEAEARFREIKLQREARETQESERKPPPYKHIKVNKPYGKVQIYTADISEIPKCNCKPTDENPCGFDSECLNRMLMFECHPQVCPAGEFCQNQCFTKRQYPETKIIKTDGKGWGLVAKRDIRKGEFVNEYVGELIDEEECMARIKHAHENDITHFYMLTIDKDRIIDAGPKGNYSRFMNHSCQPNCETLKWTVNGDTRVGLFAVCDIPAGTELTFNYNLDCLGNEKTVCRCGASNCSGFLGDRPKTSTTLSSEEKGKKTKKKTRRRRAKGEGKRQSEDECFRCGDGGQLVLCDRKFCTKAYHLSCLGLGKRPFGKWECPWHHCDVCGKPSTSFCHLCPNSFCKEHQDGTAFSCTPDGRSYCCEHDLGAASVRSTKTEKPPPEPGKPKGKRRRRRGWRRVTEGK

SMILES | inhibition
CCc1ccc(OP(C)(=O)O)cc1 | inactive: -1.69%
CP(=O)(Nc1ccccn1)Oc1ccccc1 (configuration not stated) | inactive: -2.79%
O=[N+]([O-])c1cc([N+](=O)[O-])c(Nc2ccccn2)c([N+](=O)[O-])c1 | inactive: 46.9%
Cc1c(NP(C)(=O)Oc2ccc(C(C)C)cc2)c(=O)n(-c2ccccc2)n1C (configuration not stated) | inactive: -4.16%
CN(C)CCOC(=O)C(O)(c1ccccc1)C1CCCC1 (configuration not stated) | inactive: 1.79%
COc1ccccc1OP(C)(=O)Nc1ccc(Br)cc1 (configuration not stated) | inactive: -4.21%
CP(=O)(OCCOc1ccccc1)OCCOc1ccccc1 | inactive: 0.834%
CP(=O)(Nc1ccc(Cl)cc1Cl)Oc1ccccc1 (configuration not stated) | inactive: 31%
COc1ccc(OP(C)(=O)Nc2ccccc2Br)cc1 (configuration not stated) | inactive: -3.03%
COc1ccccc1OP(C)(=O)Nc1ccc(C)c(C)c1 (configuration not stated) | inactive: 0.655%
Cc1cc(C)cc(OP(C)(=O)Nc2cccc(C(F)(F)F)c2)c1 (configuration not stated) | inactive: 0.664%
O=C1C(O)=C([N+](=O)[O-])C(=O)C(O)=C1[N+](=O)[O-] | inactive: 17.2%
CP(=O)(OC12CC3CC(CC(C3)C1)C2)OC12CC3CC(CC(C3)C1)C2 | inactive: 0.865%
CCOC(=O)c1ccc(NP(C)(=O)Oc2ccc(Cl)cc2)cc1 (configuration not stated) | inactive: -1.16%
CN(C)C(=O)c1c([N+](=O)[O-])cc([N+](=O)[O-])cc1[N+](=O)[O-] | inactive: 44%
CP(=O)(Nc1ccc(Cl)cc1)Oc1ccc(F)cc1 (configuration not stated) | inactive: 0.023%
CC(C)(C)c1ccc(OP(C)(=O)O)cc1 | inactive: 2.62%
COc1ccccc1OP(C)(=O)Nc1ccccc1Br (configuration not stated) | inactive: -1.56%
CP(=O)(Oc1ccccc1)N1CCOC1=O (configuration not stated) | inactive: -2.78%
O=C(OCCCN1CCCC1)C(O)(c1ccccc1)C1CCCCC1 (configuration not stated) | inactive: 1.85%
COc1ccccc1OP(C)(=O)Nc1c(C)n(C)n(-c2ccccc2)c1=O (configuration not stated) | inactive: 2.49%
COc1ccc(OP(C)(=O)Nc2ccc(Br)cc2)cc1 (configuration not stated) | inactive: -0.863%

SMILES | inhibition
O=[N+]([O-])c1cc([N+](=O)[O-])c(C(F)(F)F)c([N+](=O)[O-])c1O | inactive: 5.05%
Cc1ccccc1NP(C)(=O)Nc1ccccc1C | inactive: -0.583%
CP(=O)(Nc1ccc2c(c1)OCCO2)Oc1ccccc1 (configuration not stated) | inactive: 0.898%
CCOP(C)(=S)SCC(=O)NC(C)(CC)C(=O)O (configuration not stated) | inactive: 2.36%
CP(=O)(Nc1ccc(SC(F)(F)F)cc1)Oc1ccc(F)cc1 (configuration not stated) | inactive: 0.121%
Cc1c(C(c2ccc3c(c2)OCO3)c2c(C)n(C)n(-c3ccccc3)c2=O)c(=O)n(-c2ccccc2)n1C.O=[N+]([O-])c1cc([N+](=O)[O-])c(O)c([N+](=O)[O-])c1 | inactive: -14%
Cc1cc(-c2cccc3ccccc23)c(C)cn1.O=[N+]([O-])c1cc([N+](=O)[O-])c(O)c([N+](=O)[O-])c1 | inactive: -5.64%
O=[N+]([O-])c1cc([N+](=O)[O-])c(NCC2CCS(=O)(=O)C2)c([N+](=O)[O-])c1 (configuration not stated) | inactive: 17.3%
O=[N+]([O-])c1ccc(OP2(=O)COCCO2)cc1 (configuration not stated) | inactive: -2.31%
COc1ccc(NP(C)(=O)Oc2ccccc2OC)cc1 (configuration not stated) | inactive: 1.15%
CN(C)CCOC(=O)C(O)(c1ccccc1)C1CCCCC1 (configuration not stated) | inactive: 10.1%
COc1ccc(OP(C)(=O)Nc2cccc(Br)c2)cc1 (configuration not stated) | inactive: 0.69%
CCCCCOc1ccc(NP(C)(=O)Oc2ccc(Cl)cc2Cl)cc1 (configuration not stated) | inactive: -1.25%
O=[N+]([O-])c1cc([N+](=O)[O-])c(OC2CCCCC2O)c([N+](=O)[O-])c1 (configuration not stated) | inactive: 1.61%
CP(=O)(Nc1ccccc1)Oc1ccc(F)cc1 (configuration not stated) | inactive: 0.53%
CCN(CC)CCCOC(=O)C(O)(c1ccccc1)C1CCCCC1 (configuration not stated) | inactive: 5.01%
Cc1c([N+](=O)[O-])cc([N+](=O)[O-])c(Br)c1[N+](=O)[O-] | inactive: 0.355%
COc1ccc(OP(C)(=O)Nc2ccc(SC(F)(F)F)cc2)cc1 (configuration not stated) | inactive: -1.2%
CCOC(=O)c1ccc(NP(C)(=O)Oc2ccc(F)cc2)cc1 (configuration not stated) | inactive: 1.49%
O=C(OCCN1CCN(CCOCc2ccccc2)CC1)C(O)(c1ccccc1)c1ccccc1 | inactive: 0.82%
O=C(OC1CN2CCC1CC2)c1ccc([N+](=O)[O-])cc1 (configuration not stated) | inactive: 0.856%
CC(C)c1ccc(OP(C)(=O)Nc2ccc(SC(F)(F)F)cc2)cc1 (configuration not stated) | inactive: -0.747%

SMILES | inhibition
CP(=O)(Nc1ccccc1F)Oc1ccccc1 (configuration not stated) | inactive: -1.62%
O=[N+]([O-])c1cc([N+](=O)[O-])c(Nc2ccc(Cl)cc2)c([N+](=O)[O-])c1 | inactive: 12.4%
CP(=O)(Nc1cccc(Br)c1)Oc1ccccc1 (configuration not stated) | inactive: -0.746%
Cc1cc(C)cc(OP(C)(=O)Nc2ccccn2)c1 (configuration not stated) | inactive: -1.7%
Cc1ccc(C)c(NP(C)(=O)Oc2ccccc2)c1 (configuration not stated) | inactive: -0.351%
Cc1cc(C)cc(OP(C)(=O)Nc2ccc(C)cc2C)c1 (configuration not stated) | inactive: -6.98%
CCOC(=O)c1ccc(NP(C)(=O)Oc2cc(C)cc(C)c2)cc1 (configuration not stated) | inactive: 8.27%
COc1ccccc1OP(C)(=O)Nc1cccc(Br)c1 (configuration not stated) | inactive: -2.74%
CC1=NCCc2c1[nH]c1ccccc21.O=[N+]([O-])c1cc([N+](=O)[O-])c(O)c([N+](=O)[O-])c1 | inactive: 2.17%
O=C(O)c1cccc(Nc2c([N+](=O)[O-])cc([N+](=O)[O-])cc2[N+](=O)[O-])c1 | inactive: 0.74%
CP(=O)(Nc1ccc(SC(F)(F)F)cc1)Oc1ccccc1 (configuration not stated) | inactive: -1.09%
CCCOc1ccc(NP(C)(=O)Oc2ccc(Cl)cc2)cc1 (configuration not stated) | inactive: -0.912%
COc1ccc(-c2ccccn2)cc1.O=[N+]([O-])c1cc([N+](=O)[O-])c(O)c([N+](=O)[O-])c1 | inactive: -4.56%
CN1CCCCC1COC(=O)C1(O)c2ccccc2CCc2ccccc21 (configuration not stated) | inactive: 2.65%
COc1ccccc1OP(C)(=O)Nc1c(C)cccc1C (configuration not stated) | inactive: -1.57%
O=[N+]([O-])c1cc([N+](=O)[O-])c(Nc2nnnn2CCO)c([N+](=O)[O-])c1 | inactive: 8.06%
Cc1nc2ccc3ccccc3c2s1.O=[N+]([O-])c1cc([N+](=O)[O-])c(O)c([N+](=O)[O-])c1 | inactive: 1.04%
O=[N+]([O-])c1cc([N+](=O)[O-])c(-c2cnn(-c3ccccc3)c2)c([N+](=O)[O-])c1 | inactive: 2.06%
CN(Cc1cccnc1)C(=O)COc1ccc(Cl)c(Cl)c1.O=[N+]([O-])c1cc([N+](=O)[O-])c(O)c([N+](=O)[O-])c1 | inactive: -1.11%
O=[N+]([O-])c1cc([N+](=O)[O-])c(-n2nnc3ccccc32)c([N+](=O)[O-])c1 | inactive: 5.88%
CP(=O)(Nc1ccccn1)Oc1ccc(Cl)cc1 (configuration not stated) | inactive: -0.176%
CCOP(C)(=S)SCC(=O)NC(C)C(=O)O (configuration not stated) | inactive: -1.72%

SMILES | inhibition
CCOC(=O)c1ccc(NP(C)(=O)Oc2ccc(OC)cc2)cc1 (configuration not stated) | inactive: -0.395%
Cc1cc(C)cc(OP(C)(=O)Nc2ccc(SC(F)(F)F)cc2)c1 (configuration not stated) | inactive: -0.685%
CCc1ccc(OP(C)(=O)N2CCN(c3ccc([N+](=O)[O-])cc3)CC2)cc1 (configuration not stated) | inactive: 4.84%
CP(=O)(NC(=O)Nc1ccccc1)Oc1ccccc1 (configuration not stated) | inactive: 4.58%
CP(=O)(Oc1ccccc1)OC(c1ccccc1)C(F)(F)F (configuration not stated) | inactive: -5.6%
CP(=O)(Nc1ccc(SC(F)(F)F)cc1)Oc1ccc(Cl)cc1 (configuration not stated) | inactive: -1.08%
Cc1ccc(Nc2c([N+](=O)[O-])cc([N+](=O)[O-])cc2[N+](=O)[O-])cc1 | inactive: 26.4%
Cc1cccc(C)c1OP(C)(=O)Nc1ccc(SC(F)(F)F)cc1 (configuration not stated) | inactive: -1.27%
COc1ccccc1OP(C)(=O)Nc1ccccc1 (configuration not stated) | inactive: -0.678%
CP(=O)(Nc1ccccc1Br)Oc1ccccc1 (configuration not stated) | inactive: -4.5%
CP(=S)(Nn1cnnc1)Oc1ccccc1 (configuration not stated) | inactive: 0.643%
COc1ccccc1OP(C)(=O)Nc1cc(Cl)ccc1C (configuration not stated) | inactive: -4.79%
Cc1cc(C)cc(OP(C)(N)=O)c1 (configuration not stated) | inactive: 4.96%
CCOC(=O)c1ccc(NP(C)(=O)Oc2ccccc2)cc1 (configuration not stated) | inactive: -1.45%
Cc1ccc(NP(C)(=O)Oc2ccccc2)c(C)c1 (configuration not stated) | inactive: 0.249%
COc1ccccc1OP(C)(=O)Nc1ccc(C)cc1 (configuration not stated) | inactive: 1.79%
Cc1cccc(C)c1OP(C)(N)=O (configuration not stated) | inactive: -1.12%
CC(C)(C)c1ccc(OP(C)(=O)Nc2ccc(SC(F)(F)F)cc2)cc1 (configuration not stated) | inactive: -2.04%
O=[N+]([O-])c1ccc2c(c1)C=Nc1ccccc1O2 | inactive: 7.09%
COc1ccccc1-c1ccccn1.O=[N+]([O-])c1cc([N+](=O)[O-])c(O)c([N+](=O)[O-])c1 | inactive: 2.02%
CCN(CC)CCCOC(=O)C(O)(c1ccccc1)c1ccccc1 | inactive: 2.92%
